The values that follow are results of earlier work, collected in patent publication US20110052722A1, “Toleration Iron Supplement Compositions” (priority 2005, published 2011).

For this series the following is noted: total administration should not exceed; cited from earlier work.

In the case of polysaccharide iron complex [PIC], the toxicity limits result is given as “about 5000 mg/kg”.
